Here are results for 3 compounds from US20230278998A1, “Compound containing structure of a five-membered heteroaromatic ring, pharmaceutical compositions thereof and applications thereof” (280 Bio, Inc., priority 2022, published 2023).

Sequences of proteins named here, by UniProt entry; tags and fusion partners are left off. Residues count along the entry.
UniProt Q86W56, 389-976 limits assumed: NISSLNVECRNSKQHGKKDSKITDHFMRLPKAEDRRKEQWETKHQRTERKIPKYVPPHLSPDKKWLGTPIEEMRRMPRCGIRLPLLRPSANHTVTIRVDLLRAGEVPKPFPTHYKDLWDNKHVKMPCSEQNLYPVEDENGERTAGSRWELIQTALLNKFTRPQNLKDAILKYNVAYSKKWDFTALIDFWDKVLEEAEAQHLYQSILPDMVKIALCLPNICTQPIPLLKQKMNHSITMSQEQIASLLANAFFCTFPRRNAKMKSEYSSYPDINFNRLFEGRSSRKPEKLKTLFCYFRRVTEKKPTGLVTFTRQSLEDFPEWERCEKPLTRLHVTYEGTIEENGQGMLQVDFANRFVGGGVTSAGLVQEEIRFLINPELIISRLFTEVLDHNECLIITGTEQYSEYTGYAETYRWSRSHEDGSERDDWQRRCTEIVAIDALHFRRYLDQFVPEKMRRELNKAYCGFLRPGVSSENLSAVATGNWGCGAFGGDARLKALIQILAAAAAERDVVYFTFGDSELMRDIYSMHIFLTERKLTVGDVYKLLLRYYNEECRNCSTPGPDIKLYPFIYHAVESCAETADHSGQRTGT

The target in the experiment is PARG (389-976) (Homo sapiens (Human), UniProt Q86W56). In words: PARG enzyme inhibition assay (TR-FRET). Conditions: read-out: IC50 (PARG enzyme); Table 3, class symbol.

Structures are written as SMILES. Where only a bound is given, the exact number is not on record here.

As for `Cn1nc(-c2nnc(C(F)F)s2)c2cc(S(=O)(=O)NC3(C#N)CC3)cc(CN3CCC(C(C)(C)O)CC3)c21`, the IC50 is less than 100 nM. Turning to `CC(C)C(=O)N1C2CCC1CN(Cc1cc(S(=O)(=O)NC3(C#N)CC3)cc3c(-c4nnc(C(F)F)s4)nn(C)c13)C2`, the IC50 is less than 100 nM. As for `CC(C)C(=O)N1C2CCC1CN(c1cc(S(=O)(=O)NC3(C#N)CC3)cc3c(-c4nnc(C(F)F)s4)n(CCO)nc13)C2`, the IC50 was less than 100 nM.
